Results published in US20220259193A1, “KCNT1 INHIBITORS AND METHODS OF USE” (Praxis Precision Medicines, Inc., priority 2019, published 2022).

Amino acid sequences for entries named in this document (tags omitted).
UniProt Q5JUK3, whole entry: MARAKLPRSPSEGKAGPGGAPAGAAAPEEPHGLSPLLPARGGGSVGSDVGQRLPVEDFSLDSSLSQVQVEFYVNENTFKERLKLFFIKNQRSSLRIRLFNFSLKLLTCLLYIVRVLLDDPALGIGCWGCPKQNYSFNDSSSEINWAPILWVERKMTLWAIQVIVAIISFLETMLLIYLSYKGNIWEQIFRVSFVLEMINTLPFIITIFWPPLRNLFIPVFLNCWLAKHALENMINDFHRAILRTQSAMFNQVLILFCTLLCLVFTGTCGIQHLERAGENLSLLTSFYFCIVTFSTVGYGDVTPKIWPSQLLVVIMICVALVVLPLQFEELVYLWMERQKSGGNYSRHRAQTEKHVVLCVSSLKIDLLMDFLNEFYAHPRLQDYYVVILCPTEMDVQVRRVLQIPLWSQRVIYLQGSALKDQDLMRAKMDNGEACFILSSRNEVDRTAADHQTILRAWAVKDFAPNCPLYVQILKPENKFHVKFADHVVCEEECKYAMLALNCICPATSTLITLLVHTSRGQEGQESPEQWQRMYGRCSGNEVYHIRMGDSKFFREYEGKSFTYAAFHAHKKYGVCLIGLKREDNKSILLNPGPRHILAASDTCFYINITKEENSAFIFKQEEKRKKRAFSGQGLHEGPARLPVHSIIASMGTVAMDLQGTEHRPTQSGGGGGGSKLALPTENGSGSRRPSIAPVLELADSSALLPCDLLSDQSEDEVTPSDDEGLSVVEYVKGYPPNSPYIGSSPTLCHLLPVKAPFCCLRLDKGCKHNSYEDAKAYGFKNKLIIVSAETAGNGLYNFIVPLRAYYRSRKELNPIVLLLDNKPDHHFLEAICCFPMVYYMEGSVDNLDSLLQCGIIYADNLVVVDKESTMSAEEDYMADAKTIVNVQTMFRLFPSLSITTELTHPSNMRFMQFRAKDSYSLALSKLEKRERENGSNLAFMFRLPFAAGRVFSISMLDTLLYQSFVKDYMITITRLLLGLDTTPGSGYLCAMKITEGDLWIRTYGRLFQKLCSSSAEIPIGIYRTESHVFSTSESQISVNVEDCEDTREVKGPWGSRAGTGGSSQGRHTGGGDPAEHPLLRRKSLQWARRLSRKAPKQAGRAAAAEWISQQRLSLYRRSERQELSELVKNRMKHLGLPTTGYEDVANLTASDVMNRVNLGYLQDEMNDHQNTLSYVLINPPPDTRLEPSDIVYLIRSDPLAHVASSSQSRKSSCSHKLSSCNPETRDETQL

Target: KCNT1 (KNa1.1, Slack) (Homo sapiens, UniProt Q5JUK3)
Assay: KCNT1 patch clamp assay (SyncroPatch 384PE automated patch clamp)
Format: cell-based
Settings: read-out: KCNT1-WT IC50; tetracycline inducible HEK-TREX cell line; perforated patch; step from −80 mV to 0 mV; room temperature

## Cc1cccc(-c2noc(C(C)NC(=O)c3cc(C(F)(F)F)nn3CC(F)F)n2)c1 (single isomer, unassigned)
  IC50: < 1000 nM
